Assays:
[1] = biological target: T1, Human immunodeficiency virus type 1 integrase (Human immunodeficiency virus 1, UniProt Q7ZJM1)
[2] = biological target: T1, Human immunodeficiency virus type 1 integrase; remark: listed apart in the source

O=c1cc(-c2ccccc2)oc2cc(O)c(O)c(O)c12 [BAICALEIN]
IC50 [1]: 4300 nM | IC50 [2]: 1200 nM

Reference: ChEMBL document CHEMBL1128265, “Three-dimensional quantitative structure-activity relationship (QSAR) of HIV integrase inhibitors: a comparative molecular field analysis (CoMFA) study” (J Med Chem, 1995)
